AlphaSeq binding of Ab-14 light chain variants to a spike HR2 peptide

From the AlphaSeq antibody data of Li et al. 2023 (doi:10.1038/s41467-023-39022-2), copy in the FLAb collection.

The target is the same throughout: PDVDLGDISGINAS, from the HR2 region of SARS-CoV-2 spike.

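Phage display of a naive human antibody library on the peptide gave the parent. Designed CDR sequences, proposed from the first random library and measured here. Their group label is 14L_En_Gen (En: ensemble of fine-tuned language models; Gen: genetic algorithm). Affinity was read by AlphaSeq, a pooled yeast mating assay with surface-displayed partners. After mating in shaken culture at 30 °C for 16 h, diploids were selected and their barcode pairs sequenced. Read counts were normalised to the haploid input and turned into Kd by a linear fit to BCL2-family pairs of known affinity, for each replicate. Each pool was mated in six replicate cultures.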

Ab-14 is the parent antibody, in scFv form: VH, then the linker GGGGSGGGGSGGGGS, then VL. The heavy chain is unchanged in all variants.
VH: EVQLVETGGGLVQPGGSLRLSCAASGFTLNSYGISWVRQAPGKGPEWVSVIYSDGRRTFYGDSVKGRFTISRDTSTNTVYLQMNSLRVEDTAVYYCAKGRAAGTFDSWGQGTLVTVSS
VL: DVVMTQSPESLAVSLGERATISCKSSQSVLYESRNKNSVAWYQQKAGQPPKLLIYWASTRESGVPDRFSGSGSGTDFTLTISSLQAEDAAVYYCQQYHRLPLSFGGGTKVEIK

Each variant is given by its three light chain CDRs, as the data file delimits them; those of the parent are KSSQSVLYESRNKNSVA, WASTRES, QQYHRLPLS. Values are log10 of the apparent Kd in nM; lower means stronger binding. Averages over replicates are reported, and they cover detected replicates only. "ND" marks a missing value. The strain was present, yet no cells mated with the target were sequenced in that replicate, which points to weak or no binding. In the paper, a design with two or fewer of six values counts as a poor binder.

CDR-L1,CDR-L2,CDR-L3,"replicates, log10 nM","log10 Kd (nM), mean",control signals
MMSQVTGMETRQRNNVA,QTSTREA,QQYDRLPLI,0.66 / 0.60 / 0.49 / 0.59 / 0.52 / 0.44,0.55,4 of 18 (3.20)
MVNGIMDHLSKNTNNVA,ETTTREK,QQYERLPLS,0.16 / 0.09 / -0.25 / -0.05 / -0.04 / -0.09,-0.03,3 of 18 (1.58)
MISQISSMGQFAKNSVA,QASQRNT,QQYDRLPLI,0.72 / 0.61 / 0.46 / 0.30 / 0.43 / 0.67,0.53,3 of 18 (3.22)
MISQLYNMGQFAINSVA,QASERNE,QQYDRLPLM,ND / 2.38 / ND / ND / 2.42 / ND,2.40,1 of 18 (1.60)
MVTQMAMTGMKNKRSVA,NAEMREY,QQYNRLPLI,1.51 / 0.75 / 1.52 / 0.92 / 0.84 / 1.04,1.10,1 of 18 (2.01)
TISQMSTLFSQSINNVA,EVSTREE,QQYDRLPLA,0.98 / 0.89 / 1.05 / 0.53 / 0.52 / 1.07,0.84,0 of 18
KIGMTLNQLYQKANNVA,DLVEREN,QQYHRLPLS,1.26 / 0.59 / 0.79 / 0.45 / 0.52 / 0.55,0.69,1 of 18 (1.16)
KVSEFMRGLMSRQDSIA,DNVTRSN,QQYDRLPLS,ND / ND / 1.89 / ND / ND / ND,1.89,1 of 18 (1.72)
SLGLATMLEEQVRNSVA,NNSTRED,QQYDRLPLS,ND / 1.36 / 0.48 / ND / 0.78 / ND,0.87,0 of 18
MVYQAAMMGTSTRNNIA,NAEMRPD,QQYHRLPLE,0.81 / 0.19 / 0.99 / 0.23 / -0.07 / 0.74,0.48,1 of 18 (2.20)
QLSMITGHQSMIKNNVA,EMETREN,QQYDRLPLS,0.82 / 0.61 / 0.77 / 0.28 / -0.01 / 1.08,0.59,1 of 18 (2.59)
KLSMITGHQLMSKNNVA,EMVTREN,QQYERLPLS,0.43 / 0.12 / 0.20 / 0.10 / 0.54 / 0.33,0.29,1 of 18 (2.28)
KFSQMANSMSVSKSAVA,EMSTRPE,QQYNRLPLS,0.05 / 0.32 / 0.37 / 0.01 / 0.48 / 0.26,0.25,0 of 18
KLSSVTGHLSVEKNNVA,EMETREN,QQYNRLPLS,0.82 / 1.07 / 0.69 / 1.21 / 1.25 / 0.92,0.99,0 of 18
MISNVMNTLTRIGNNVA,DLAERED,QQYFRLPLS,1.32 / 1.45 / 1.11 / 1.75 / 0.94 / 1.26,1.30,1 of 18 (3.47)
IVSQLMLWGMHIKNSVA,EAVTRVN,QQYDRLPLI,ND / 1.49 / ND / 1.53 / ND / ND,1.51,0 of 18
KISMLLNMTFEASNNVA,EMATREK,QQYNRLPLS,0.48 / 0.35 / 0.62 / 0.31 / 0.28 / 0.56,0.43,1 of 18 (3.10)
TISGVMQTVSHSKNNVA,EMNTRLE,QQYVRLPLA,0.23 / 0.11 / 0.34 / 0.67 / -0.04 / 0.03,0.22,0 of 18
TISDLMGHMSRAHNNVA,DMDTRGE,QQYNRLPLS,-0.16 / -0.03 / -0.13 / -0.36 / -0.25 / -0.10,-0.17,1 of 18 (3.54)
MISQLYNMGSFAINSVA,QASERNH,QQYDRLPLI,2.59 / 1.87 / 2.84 / 1.91 / 2.47 / 3.37,2.51,0 of 18
MMSQVWGMGQRHRNNVA,QTSTREE,QQYDRLPLI,0.69 / 0.07 / 0.30 / 0.22 / -0.05 / 0.36,0.27,1 of 18 (2.39)
IVSQLMLWGYIAKNSIA,EAEMRLN,QQYERLPLF,ND / ND / ND / ND / ND / ND,ND,0 of 18
KISQMTRVGATHSNSIA,EEVTRAK,QQYHRLPLA,ND / 1.63 / 2.02 / 1.90 / 2.11 / 1.19,1.77,0 of 18
MISQISSMGQFAKNSVA,QASQRNA,QQYDRLPLI,0.82 / 0.74 / 0.28 / 0.86 / 0.59 / 0.60,0.65,0 of 18
MISQLYNMGQFAINSVA,QASERCN,QQYDRLPLI,1.09 / 0.92 / 0.95 / 1.31 / 1.12 / 1.69,1.18,0 of 18
MISMNIYGAYRARDNVA,HASNREN,QCYDRLPLS,1.21 / ND / ND / 1.41 / 1.22 / 1.40,1.31,0 of 18
MISQVLNTLTRTGNNVA,DLQEREQ,QQYFRLPLS,ND / 1.33 / ND / ND / ND / ND,1.33,0 of 18
MVTQMAMTGMMSKRSVA,NAETREN,QQYHRLPLI,0.91 / 0.28 / 0.98 / 0.76 / 0.51 / 0.41,0.64,0 of 18
KISQMIRVGSTAVNSIA,EEVTRAK,QQYHRLPLA,0.67 / 0.71 / 0.60 / 0.66 / 0.35 / 0.63,0.60,0 of 18
TISMITSSFTQNINNVA,EVSTRLN,QQYDRLPLA,-0.10 / -0.35 / -0.29 / -0.03 / -0.13 / 0.33,-0.10,0 of 18
NISHFMDVTAKNINNVA,EMTMRER,QQYHHLPLS,0.84 / 0.75 / 0.66 / 0.61 / 0.71 / 0.93,0.75,0 of 18
MISQLYNMGTFAINSVA,QASQRNE,QQYDRLPLM,0.31 / 0.21 / 0.67 / 0.41 / 0.82 / 0.36,0.46,2 of 18 (1.59)
IVSQLMLWGLHAKNSIA,EAELRLN,QQYDRLPLF,ND / ND / ND / ND / ND / ND,ND,0 of 18
KLTQTMRFEQKKKNNIA,EVTTRTK,QQYYRLPLA,1.45 / 1.67 / 2.35 / 1.66 / 1.80 / 1.49,1.74,2 of 18 (3.14)
MISNVMNTLSRQGNNVA,DLAERED,QQYFRLPLS,0.57 / 0.69 / 0.66 / 0.71 / 0.62 / 0.89,0.69,2 of 18 (2.62)
MISNVMNTLTREGNNVA,DLAEREK,QQYFRLPLS,0.86 / 0.15 / 0.37 / 0.25 / 0.23 / 1.06,0.49,1 of 18 (1.54)
MISEMMHMIGARKNSIA,DLVMRAN,QQYHRLPLS,1.26 / 0.83 / 1.09 / 1.90 / 1.63 / 1.28,1.33,0 of 18
KVSEFMRGLMQKTDSIA,DNQTRNN,QQYDRLPLS,1.40 / 1.15 / 0.98 / 1.24 / 1.56 / 1.24,1.26,3 of 18 (2.97)
KLSQITGHMSVSKNNVA,EMETRAN,QQYDRLPLS,1.20 / 0.87 / 0.63 / 0.78 / 0.97 / 1.02,0.91,3 of 18 (3.58)
KISMLINQTFEQSNNVA,EMVTRER,QQYNRLPLS,2.53 / 2.38 / 1.75 / 1.62 / 2.71 / 1.97,2.16,3 of 18 (2.85)
KITQTMRFEQKASNNIA,EVTQRSK,QQYYRLPLS,0.38 / 0.51 / 0.65 / 0.29 / 0.18 / 0.55,0.43,2 of 18 (2.53)
MVNGIMDHLSKQHNNVA,ETETREE,QQYDRLPLS,ND / 1.60 / ND / 2.11 / 1.57 / 1.07,1.59,0 of 18
IVSQLMLWGYHAKNSIA,EAETRPN,QQYDRLPLI,1.93 / ND / 2.07 / 2.13 / 2.40 / ND,2.13,0 of 18
KLTMITGLEKVSTNNVA,EMETREK,QQYNRLPLA,0.93 / 0.38 / 1.16 / 0.45 / 0.68 / 0.62,0.70,0 of 18
TISQVMNTMTRHGNNVA,DLAERED,QQYFRLPLS,0.59 / 0.45 / 0.54 / 0.52 / 0.46 / 0.72,0.55,2 of 18 (3.02)
MISQLYNMGQFAINSVA,QAETRCN,QQYDRLPLE,ND / ND / 1.57 / 0.81 / 2.13 / 1.60,1.53,0 of 18

The 6 strongest on average among those seen in every replicate, once more:

CDR-L1,CDR-L2,CDR-L3,"replicates, log10 nM","log10 Kd (nM), mean",control signals
TISDLMGHMSRAHNNVA,DMDTRGE,QQYNRLPLS,-0.16 / -0.03 / -0.13 / -0.36 / -0.25 / -0.10,-0.17,1 of 18 (3.54)
TISMITSSFTQNINNVA,EVSTRLN,QQYDRLPLA,-0.10 / -0.35 / -0.29 / -0.03 / -0.13 / 0.33,-0.10,0 of 18
MVNGIMDHLSKNTNNVA,ETTTREK,QQYERLPLS,0.16 / 0.09 / -0.25 / -0.05 / -0.04 / -0.09,-0.03,3 of 18 (1.58)
TISGVMQTVSHSKNNVA,EMNTRLE,QQYVRLPLA,0.23 / 0.11 / 0.34 / 0.67 / -0.04 / 0.03,0.22,0 of 18
KFSQMANSMSVSKSAVA,EMSTRPE,QQYNRLPLS,0.05 / 0.32 / 0.37 / 0.01 / 0.48 / 0.26,0.25,0 of 18
MMSQVWGMGQRHRNNVA,QTSTREE,QQYDRLPLI,0.69 / 0.07 / 0.30 / 0.22 / -0.05 / 0.36,0.27,1 of 18 (2.39)

Values of this round are not directly comparable with the first-round values of the same sequences. Background: pairings of all light chain designs with three empty control strains gave a value in 4% of cases (median 2.64, 5th percentile 1.59). Values in that range, when seen in few replicates, are hard to tell from nonspecific mating. The control count says in how many pairings with the empty strains this scFv gave a signal, with their mean in brackets.